This is an account of results in publication PMC1500806, “Carrageenan Is a Potent Inhibitor of Papillomavirus Infection” (PLoS Pathogens, 2006).

The series deals with HeLa cells. Description: Cytotoxicity (WST-1 turnover and/or cell morphology). The series is classed as cell-based. As for the experimental part: Compounds were tested using a previously described PsV-based papillomavirus inhibition assay. Briefly, HeLa cells were plated at 6,000 cells/well in 50 μl of medium in 96-well plates. Candidate inhibitors were dissolved at 1–10 mg/ml (or reconstituted as directed by manufacturer) in sterile water or appropriate solvent, then subjected to a ten-point three-fold serial dilution covering an appropriate concentration range. Diluted candidate inhibitor (50 μl) was added to preplated HeLa cells, followed by 50 μl of diluted PsV stock. The cells were incubated for 24 h, fed by addition of 100 μl of DMEM-10, then subjected to flow cytometric analysis 48–56 h after infection. IC50 values and 95% CI were determined using Prism (GraphPad Software, San Diego, California, United States) to calculate a variable slope sigmoidal dose-response curve.
Cytotoxicity was defined as a >50% reduction in the net turnover of the metabolic substrate WST-1 (Roche, Indianapolis, Indiana, United States) and/or by the appearance of dramatic alterations in the microscopic appearance of cell morphology at the time of harvest.

Turning to Methyl ß-cyclodextrin, the Cytotoxicity is >1,000 μg/ml. On to Cellulose sulfate, for which the Cytotoxic dose result is listed as “None of the compounds scored as cytotoxic at doses ≤100 μg/ml, except cellulose sulfate, which was cytotoxic at doses ≥11 μg/ml”.

With “Polystyrene sulfonate [Polystyrene sulfonate, 1,430 kDa]”, the Cytotoxicity is 1,400 μg/ml.
